# Legend:
# Amino acid sequences for entries named in this document (tags omitted).
# UniProt P27338, whole entry: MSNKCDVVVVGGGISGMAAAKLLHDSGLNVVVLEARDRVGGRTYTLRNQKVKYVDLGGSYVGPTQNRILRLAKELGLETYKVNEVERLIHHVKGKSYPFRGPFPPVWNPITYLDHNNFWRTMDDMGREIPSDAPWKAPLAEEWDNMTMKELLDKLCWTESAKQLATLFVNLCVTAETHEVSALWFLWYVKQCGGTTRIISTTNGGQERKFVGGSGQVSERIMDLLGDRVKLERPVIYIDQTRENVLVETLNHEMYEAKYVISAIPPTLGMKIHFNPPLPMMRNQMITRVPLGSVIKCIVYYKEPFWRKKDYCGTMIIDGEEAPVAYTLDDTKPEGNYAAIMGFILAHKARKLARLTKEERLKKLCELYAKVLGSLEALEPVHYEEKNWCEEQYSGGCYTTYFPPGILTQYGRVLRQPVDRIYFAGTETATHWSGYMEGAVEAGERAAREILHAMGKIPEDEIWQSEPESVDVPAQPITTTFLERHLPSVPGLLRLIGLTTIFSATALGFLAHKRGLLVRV
# recombinant human MAO-B [1] = target: T1, recombinant human MAO-B (Homo sapiens, UniProt P27338); assay: MAO-B inhibition assay (kynuramine oxidative deamination)
# recombinant human MAO-B [2] = target: T1, recombinant human MAO-B; assay: Enzyme kinetics and mechanism studies (Lineweaver-Burk)
smiles,measurement,setting,value
COc1ccc(-c2cc(=O)c3c(O)cc(O)cc3o2)cc1 [Acacetin],IC50,recombinant human MAO-B [1],50 ± 2.5 nM
same,Ki,recombinant human MAO-B [2],36 ± 4 nM
